## scFv variants of Ab-14 (heavy chain) against a SARS-CoV-2 spike peptide

Reference: Li et al. 2023, doi:10.1038/s41467-023-39022-2. File: FLAb, binding data.

Binding partner: SARS-CoV-2 spike HR2 peptide, sequence PDVDLGDISGINAS.

Ab-14 is the parent antibody, in scFv form: VH, then the linker GGGGSGGGGSGGGGS, then VL. The light chain is unchanged in all variants.
VH: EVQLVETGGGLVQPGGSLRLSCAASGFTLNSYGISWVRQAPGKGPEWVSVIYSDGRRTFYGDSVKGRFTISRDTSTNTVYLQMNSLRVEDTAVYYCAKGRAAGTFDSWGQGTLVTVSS
VL: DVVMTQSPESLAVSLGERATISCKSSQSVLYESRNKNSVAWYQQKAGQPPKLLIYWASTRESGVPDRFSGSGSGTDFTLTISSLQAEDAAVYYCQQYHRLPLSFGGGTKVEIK

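This is the validation round: designs drawn from the data on random variants, tested in the same kind of assay. Several design methods are mixed in this list. The assay is AlphaSeq: two haploid yeast populations carry antibody and antigen on their surface. The frequency of each diploid, read from paired DNA barcodes, reflects how well the two displayed proteins bind. A regression on co-assayed BCL2-family reference pairs converts the normalised counts of each replicate to an apparent Kd. The assay was run in six technical replicates.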

Each variant is given by its three heavy chain CDRs, as the data file delimits them; those of the parent are GFTLNSYGIS, VIYSDGRRTFYGDSVK, GRAAGTFDS.
The read-out is the apparent dissociation constant on a log10 scale (nM): the lower, the stronger.
Averages over replicates are reported, and they cover detected replicates only.
A pair that was not seen in any replicate is written "nd"; this usually means weak binding, but a binder can also be missed.
Three control strains display no target. For all heavy chain designs, 1% of the pairings with them gave a signal, with a median of 2.08 and one signal in twenty below 0.84, so weak values seen in few replicates may be background. The control count says in how many pairings with the empty strains this scFv gave a signal.
In the paper, a design with two or fewer of six values counts as a poor binder.
The parent sequence was in this pool as ten entries: three were never detected, three once, and four in most replicates, with averages from 0.34 to 2.37.
The range of this assay differs from that of the first round, and the authors advise against merging the two.

GFDLNEYGIS | VIYADGRRTAYSDSVK | GGNAGTFDQ: -0.65 (6 of 6 replicates; controls 1 of 18).
GFSLNEYGIS | VIYADGRRTFYGDSVK | GRAAGTFIS: 1.10 (5 of 6 replicates; controls 0 of 18).
GFTLNDYGIS | VIYSDGRRTFYGDSVK | GRMAGTFVS: nd (0 of 6 replicates; controls 0 of 18).
SFDLNSYGIS | VIYSDGRRTFYGDSVK | GREAGTFDS: 0.07 (4 of 6 replicates; controls 0 of 18).
GFDLDEYGIS | VIYADGMRTAYADSVK | GVNAGTFDV: -0.09 (6 of 6 replicates; controls 0 of 18).
KFSLNSYGIS | VIYSDGRRTFYQDSVK | GREAGTFDS: 1.90 (5 of 6 replicates; controls 0 of 18).
GFHLDEFGIS | VIYADGLRSSYADDAK | GENTGGFVV: nd (0 of 6 replicates; controls 0 of 18).
GFDLDEYGIS | VIYADGMRTYYSDSVK | GENAGTFDV: -2.17 (6 of 6 replicates; controls 0 of 18).
GFTLNSYGIS | VIYADGRRTFYGDSVK | GRDAGKFDS: nd (0 of 6 replicates; controls 0 of 18).
GFDLNSYGIS | VIYSDGRRTFYGDSVK | GRQAGTFDK: 0.87 (6 of 6 replicates; controls 0 of 18).
GFSLNEYGIS | VIYSDGRRTFYADSVK | GRMAGTFDS: nd (0 of 6 replicates; controls 0 of 18).
GFQLNQYGIS | VIYSDGRRTFYSDSVK | GRQAGTFDS: -0.13 (6 of 6 replicates; controls 0 of 18).
GFTLESYGIS | VIYSDGRRTFYADSVK | GSAAGTFDS: 0.49 (6 of 6 replicates; controls 0 of 18).
GFTLNSYGIS | VEYSDGRRTFYSDSVK | GRAGGTFDS: 0.97 (3 of 6 replicates; controls 0 of 18).
GFTLKSYGIS | VIYSDGRRTFYDDSVK | GKTAGTFDS: 1.95 (3 of 6 replicates; controls 0 of 18).
GFSLNSYGIS | VIYSDGRRTFYHDSVK | GEVAGTFDS: 0.06 (6 of 6 replicates; controls 0 of 18).
GCTLCEDGIS | VIYSDGRRTFYPDSVK | GRFAQTFDS: nd (0 of 6 replicates; controls 0 of 18).
GFDLNEYGIS | VIYADGVRTFYIDSVK | GENAGTFDV: -0.30 (6 of 6 replicates; controls 0 of 18).
GFDLNEYGIS | VIYADGMRTFYTDSVK | GEFAGTFDQ: -0.63 (6 of 6 replicates; controls 1 of 18).
GFDLNEYGIS | VIYADGMRTFYADSVK | GNNAGTFDT: -0.35 (6 of 6 replicates; controls 0 of 18).
GKDLEEYGIS | VIYADGFRTAYKNQVK | GSGMIDTMV: nd (0 of 6 replicates; controls 0 of 18).
GFTPNSYGIS | HIYSDGRRTFYADSVK | GRAAGTFDS: nd (0 of 6 replicates; controls 0 of 18).
GFDLEDYGIS | VIYADGVRTAYADSVK | GNVAGTFDV: -0.47 (6 of 6 replicates; controls 0 of 18).
GFDLNEYGIS | VIYADGMRTAYADKVK | GNQAGTFDM: -0.77 (6 of 6 replicates; controls 0 of 18).
GFDLNEYGIS | VIYADGKRTKYTDNVK | GSLTGTAVT: nd (0 of 6 replicates; controls 0 of 18).
GFELNSYGIS | VIYSDGRRTFYSDSVK | GEAAGTFDS: 0.67 (6 of 6 replicates; controls 0 of 18).
GFNLNEYGIS | VIYADGRRSFYSDSVK | GEQAGTFDV: -0.48 (6 of 6 replicates; controls 0 of 18).
GFDLNEYGIS | VIYADGRRTAYSDSVK | GNNAGTFDV: -0.59 (6 of 6 replicates; controls 0 of 18).
GFDLNEYGIS | VIYADGKRTFYADSVK | GQLAGTFDV: -0.62 (6 of 6 replicates; controls 1 of 18).
KFQLNEYGIS | VIYSDGRRTFYQDSVK | GRTAGTFDS: 1.46 (5 of 6 replicates; controls 0 of 18).
GFDLNEYGIS | VIYADGMRTHYTDSVK | GNEAGTFDF: 0.31 (3 of 6 replicates; controls 0 of 18).

A selection of 5 entries from above:

CDR-H1	CDR-H2	CDR-H3	mean log10 Kd (nM)	seen in	control signals
GFDLDEYGIS	VIYADGMRTAYADSVK	GVNAGTFDV	-0.09	6/6	0/18
GFTLKSYGIS	VIYSDGRRTFYDDSVK	GKTAGTFDS	1.95	3/6	0/18
GFSLNSYGIS	VIYSDGRRTFYHDSVK	GEVAGTFDS	0.06	6/6	0/18
GFDLEDYGIS	VIYADGVRTAYADSVK	GNVAGTFDV	-0.47	6/6	0/18
GFSLNEYGIS	VIYSDGRRTFYADSVK	GRMAGTFDS	nd	0/6	0/18